Test results as given in patent publication US4681872A (priority 1985, dated 1987).
In brackets after ≈: the same amount, converted by molar mass.

Legend:
Staph. aureus 45 RAR 2 = test: antimicrobial spectrum, agar dilution MIC; details: BHI agar, 35°-37° C., 20-24 hours
Staph. aureus 45 = details: BHI agar, 35°-37° C., 20-24 hours

CCC1OC(=O)C(C)C(OC2CC(C)(OC)CC(C)O2)C(C)C(OC2OC(C)CC(N(C)C)C2O)C(C)(O)CC(C)C(=O)C(C)C2OC(=O)OC12C (centres unmarked) [4"-deoxyerythromycin A 11,12-carbonate]
MIC (Staph. aureus 45 RAR 2): .2 µg/mL (≈ 0.269 µM) | MIC (Staph. aureus 45): .1 µg/mL (≈ 0.134 µM)
